Test results from patent US20190135943A1.

Target: CD3ε on Cynomolgus pan T cells (cynomolgus monkey) (UniProt Q95LI5)
Assay: flow cytometry on cynomolgus pan T cells, background-corrected MFI

EC50 (read off the curve): 4 nM
Substance: Activated CI104: Activated 3954-0011-C225v5Fcmt4-h20GG-0011-v16sc-H-N (bispecific antibody)
